Results published in PubChem BioAssay AID651800 (The Scripps Research Institute Molecular Screening Center, 2012).
This is a selection; strong and weak results do not stand in their true shares. Some tests of the compounds listed are not included; inactive here does not mean inactive elsewhere. Active and inactive are the calls of the source. No stated cut-off is given here; in the data, active means inhibition above about 19%; inactive means the rest.

What follows are compounds tested on T-cell receptor (TCR) (assay: inhibitors of human TCR-CD3 interaction, primary screen, biochemical, fluorescence, TAMRA-labeled TCR probe (AID 651800;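 further: recombinant mutant TCR 2C K166C tagged with TAMRA read by polarization; 0% = receptor in buffer alone and 100% = receptor with positive control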)). Details: at 9.4 µM, active compounds read high.

SMILES | inhibition
O=C(NCC1(N2CCCCC2)CCCCC1)c1cccc(Br)c1 | inactive: 3.29%
Cc1cc(C(=O)NCC2(N3CCCCC3)CCCCC2)ccc1[N+](=O)[O-] | inactive: -3.01%
CCN1CCCC(OC(=O)C2(O)c3ccccc3C=Cc3ccccc32)C1 (stereo unspecified) | inactive: -6.22%
COc1ccc(C(=O)NCC2(N(C)C)CCCCC2)cc1 | inactive: 5.49%
O=C(NCC1(N2CCCCC2)CCCCC1)c1cc(F)c(F)cc1Cl | inactive: 0.03%
C=CCN1CCN(CCOC(=O)C(O)(c2ccccc2)c2ccccc2)CC1 | inactive: -6.22%
CN(C)C1CCCC1OC(=O)C(O)(c1ccccc1)c1ccccc1 (stereo unspecified) | inactive: 0.29%
CN(C)c1ccc(C(=O)NCC2(N(C)C)CCCCC2)cc1 | inactive: -0.19%
Cc1ccccc1C(=O)NCC1(N2CCCCC2)CCCCC1 | inactive: 3.09%
Cc1ccc(C(=O)NCC2(N3CCCCC3)CCCCC2)cc1 | inactive: -6.96%
CC(C)N1C(=O)CC2(CCN(CCOC(=O)C(O)(c3ccccc3)c3ccccc3)CC2)C1=O | inactive: -9.67%
COc1cc(SC)ccc1C(=O)NCC1(N(C)C)CCCCC1 | inactive: -4.13%
CCN(CC)CC(C)C(C)OC(=O)C(O)(c1ccccc1)c1ccccc1 (stereo unspecified) | inactive: 1.38%
CN1[C@@H]2CC[C@H]1CC(OC(=O)C(O)(c1ccccc1)c1ccccc1)C2 (stereo partly specified) | inactive: 4.6%
O=C(NCC1(N2CCCCC2)CCCCC1)c1cc([N+](=O)[O-])ccc1Cl | inactive: 1.32%
CN(C)c1cccc(C(=O)NCC2(N(C)C)CCCCC2)c1 | inactive: 3.97%
O=C(OCCN1CCCC1)C(O)(c1ccccc1)c1ccccc1 | inactive: 1.96%
CC(C)Oc1ccc(C(=O)NCC2(N(C)C)CCCCC2)cc1 | inactive: 5.18%
COc1ccc(Br)c(C(=O)NCC2(N3CCCCC3)CCCCC2)c1 | inactive: -3.62%
C=C(C)C#CC(O)(C(=O)OC1CCN(C)CC1)c1ccccc1 (stereo unspecified) | inactive: 5.05%
O=C(OC1CN2CCC1CC2)C(CO)(c1ccccc1)c1ccccc1 (stereo unspecified) | inactive: 4.85%
O=C(NCC1(N2CCCCC2)CCCCC1)c1cccc(Cl)c1 | inactive: -6.43%
COc1ccc(Cl)cc1C(=O)NCC1(N(C)C)CCCCC1 | inactive: 0.65%
COc1cccc(C(=O)NCC2(N3CCCCC3)CCCCC2)c1 | inactive: -0.73%
COc1cc(C(=O)NCC2(N(C)C)CCCCC2)c([N+](=O)[O-])cc1OC | inactive: -2.48%
CN(C)C1(CNC(=O)c2ccc(Br)cc2)CCCCC1 | inactive: -8.14%
